For 25 compounds, activation results are on record in PubChem BioAssay AID504692 (The Scripps Research Institute Molecular Screening Center, 2011).

Sequences of proteins named here, by UniProt entry; tags and fusion partners are left off.
UniProt P47898, whole entry: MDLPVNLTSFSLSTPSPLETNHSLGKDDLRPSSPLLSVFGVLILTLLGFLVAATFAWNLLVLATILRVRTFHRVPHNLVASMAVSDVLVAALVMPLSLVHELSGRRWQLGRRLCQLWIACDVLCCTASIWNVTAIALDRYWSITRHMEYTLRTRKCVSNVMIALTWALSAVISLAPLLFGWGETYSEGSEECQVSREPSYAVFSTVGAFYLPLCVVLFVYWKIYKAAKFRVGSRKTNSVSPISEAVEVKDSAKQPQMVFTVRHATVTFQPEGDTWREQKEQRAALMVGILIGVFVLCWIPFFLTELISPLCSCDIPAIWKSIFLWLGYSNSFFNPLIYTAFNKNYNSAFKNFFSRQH

Structures are written as SMILES. This is a selection; strong and weak results do not stand in their true shares. Some of these compounds have results that are not shown, active ones among them. Calls of active or inactive are those of the source. Rule as the data show it: active = activation mostly above about 9.5% (no sharp cut-off); inactive = mostly below about 7.6%.

This assay addresses 5-hydroxytryptamine receptor 5A (Homo sapiens) (UniProt P47898). The experiment in a line: HTR5A agonists in luminescence cell assay, primary screen, counter-screen for OPRM1-OPRD1 heterodimer agonist project, full-deck HTS (AID 504692).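 Also: 0% = cells with vehicle only and 100% = reference agonist.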 The settings on record: cell-based, at 9.3 µM, active compounds read high.
As to `O=C(OC1CN2CCC1CC2)C(CO)(c1ccccc1)c1ccccc1` (stereo not given), the activation is inactive: -4.98%.

For the compound `CN(C)c1cccc(C(=O)NCC2(N(C)C)CCCCC2)c1`, the activation is inactive: 0.14%.

As to `CC(C)Oc1ccc(C(=O)NCC2(N(C)C)CCCCC2)cc1`, the activation is inactive: 0.1%.

`O=C(OCCN1CCCC1)C(O)(c1ccccc1)c1ccccc1`: the activation is inactive: 1.26%.

Take `COc1ccc(Br)c(C(=O)NCC2(N3CCCCC3)CCCCC2)c1`: the activation is inactive: -1.36%.

Regarding `COc1cc(C(=O)NCC2(N(C)C)CCCCC2)c([N+](=O)[O-])cc1OC`, the activation is inactive: -1.2%.

Take `CN(C)C1(CNC(=O)c2ccc(Br)cc2)CCCCC1`: the activation is inactive: -0.71%.

For the compound `O=C(NCC1(N2CCCCC2)CCCCC1)c1cccc(Cl)c1`, the activation was inactive: 1.28%.

Regarding `COc1cccc(C(=O)NCC2(N3CCCCC3)CCCCC2)c1`, the activation is inactive: 0.68%.

Take `COc1ccc(Cl)cc1C(=O)NCC1(N(C)C)CCCCC1`: the activation is inactive: 6.43%.

As to `Cc1ccccc1C(=O)NCC1(N2CCCCC2)CCCCC1`, the activation is inactive: -1.47%.

For the compound `CN(C)C1CCCC1OC(=O)C(O)(c1ccccc1)c1ccccc1` (stereo not given), the activation was inactive: 3.56%.

Regarding `CN(C)c1ccc(C(=O)NCC2(N(C)C)CCCCC2)cc1`, the activation is inactive: -4.26%.

Turning to `Cc1cc(C(=O)NCC2(N3CCCCC3)CCCCC2)ccc1[N+](=O)[O-]`, the activation was inactive: -4.16%.

As to `CCN1CCCC(OC(=O)C2(O)c3ccccc3C=Cc3ccccc32)C1` (stereo not given), the activation is inactive: 5.81%.

On to `O=C(NCC1(N2CCCCC2)CCCCC1)c1cccc(Br)c1`, for which the activation is inactive: 4.82%.

As for `COc1ccc(C(=O)NCC2(N(C)C)CCCCC2)cc1`, the activation is inactive: -5.19%.

On to `C=CCN1CCN(CCOC(=O)C(O)(c2ccccc2)c2ccccc2)CC1`, for which the activation was inactive: 2.59%.

Regarding `O=C(NCC1(N2CCCCC2)CCCCC1)c1cc(F)c(F)cc1Cl`, the activation was inactive: 0.68%.

For the compound `CN1[C@@H]2CC[C@H]1CC(OC(=O)C(O)(c1ccccc1)c1ccccc1)C2` (stereo not given in full), the activation is inactive: -1.62%.

As to `O=C(NCC1(N2CCCCC2)CCCCC1)c1cc([N+](=O)[O-])ccc1Cl`, the activation is inactive: 0.68%.

As to `Cc1ccc(C(=O)NCC2(N3CCCCC3)CCCCC2)cc1`, the activation was inactive: 3.53%.

Regarding `CC(C)N1C(=O)CC2(CCN(CCOC(=O)C(O)(c3ccccc3)c3ccccc3)CC2)C1=O`, the activation was inactive: 1.43%.

Take `CCN(CC)CC(C)C(C)OC(=O)C(O)(c1ccccc1)c1ccccc1` (stereo not given): the activation is inactive: 2.01%.

With `COc1cc(SC)ccc1C(=O)NCC1(N(C)C)CCCCC1`, the activation is inactive: -4.02%.
